Data on 4 compounds can be found in ChEMBL document CHEMBL1143857, “(Phenylpiperazinyl)cyclohexylureas: discovery of alpha1a/1d-selective adrenergic receptor antagonists for the treatment of benign prostatic hyperplasia/lower urinary tract symptoms (BPH/LUTS)” (Bioorg Med Chem Lett, 2008).

Chains of the proteins cited; added tags and fusions are not shown.
UniProt P35368, whole entry: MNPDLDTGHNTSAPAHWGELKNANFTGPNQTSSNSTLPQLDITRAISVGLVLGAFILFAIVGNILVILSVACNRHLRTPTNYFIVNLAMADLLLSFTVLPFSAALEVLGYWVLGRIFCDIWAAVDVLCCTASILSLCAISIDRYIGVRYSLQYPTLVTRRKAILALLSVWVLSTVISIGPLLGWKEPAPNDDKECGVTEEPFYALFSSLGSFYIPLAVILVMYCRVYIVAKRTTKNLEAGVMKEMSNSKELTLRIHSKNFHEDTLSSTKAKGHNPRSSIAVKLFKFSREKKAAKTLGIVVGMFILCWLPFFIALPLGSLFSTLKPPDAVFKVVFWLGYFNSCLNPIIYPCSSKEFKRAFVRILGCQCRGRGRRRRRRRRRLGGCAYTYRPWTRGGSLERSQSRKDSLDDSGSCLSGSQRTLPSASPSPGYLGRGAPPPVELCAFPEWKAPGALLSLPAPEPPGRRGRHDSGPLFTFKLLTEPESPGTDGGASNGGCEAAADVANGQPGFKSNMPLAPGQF

For this assay, the target named is Alpha-1B adrenergic receptor (Homo sapiens, UniProt P35368). Nature of the assay: Displacement of [125I]HEAT from human recombinant adrenergic Alpha-1B receptor.

On to `COc1ccc(Cl)cc1NC(=O)NC1CCC(N2CCN(c3ccccc3OC(C)C)CC2)CC1` (cis isomer), for which the Ki was 207 nM.

Take `COc1ccc(NC(=O)NC2CCC(N3CCN(c4ccccc4OC(C)C)CC3)CC2)c(OC)c1` (stereo in doubt; cis): the inhibition constant (Ki) was found to be 475 nM.

Regarding `COc1ccc(NC(=O)NC2CCC(N3CCN(c4ccccc4OC(C)C)CC3)CC2)c(OC)c1` (stereo in doubt; trans), the Ki was 214 nM.

With `COc1ccc(Cl)cc1NC(=O)NC1CCC(N2CCN(c3ccccc3OC(C)C)CC2)CC1` (trans isomer), the Ki came out at 81 nM.

What is called Ki is the dissociation constant of the complex between target and ligand, obtained from inhibition or displacement.
